Results on six molecules are retold here after US20130071374A1, “RNA Interferases and Methods of Use Thereof” (UNIVERSITY OF MEDICINE AND DENTISTRY OF NEW JERSEY, published 2013).

T1: Gal4 transcriptional activation domain fusion of full-length MazE (pGAD-MazE) (Escherichia coli)
T1 chain: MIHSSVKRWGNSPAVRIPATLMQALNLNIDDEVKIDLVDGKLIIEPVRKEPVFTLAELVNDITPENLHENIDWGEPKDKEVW

B1:  (other)
chain: MIHSSVKRWGNSPAVRIPATLMQALNLNIDDEVKIDLVDGKLIIEPVRKEPVFTLAELVNDITPENL
B2: Gal4 DNA binding domain fusion of MazFΔ(97-111) (pGBD-MazFΔ(97-111)) (other)
chain: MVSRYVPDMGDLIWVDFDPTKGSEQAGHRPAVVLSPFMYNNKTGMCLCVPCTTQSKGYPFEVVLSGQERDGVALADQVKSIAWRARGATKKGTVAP
B3: Gal4 DNA binding domain fusion of MazFΔ(1-14) (pGBD-MazFΔ(1-14)) (other)
chain: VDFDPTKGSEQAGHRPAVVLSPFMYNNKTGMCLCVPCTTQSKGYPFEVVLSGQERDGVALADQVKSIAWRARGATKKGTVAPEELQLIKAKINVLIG
B4: Gal4 DNA binding domain fusion of MazFΔ(1-25) (pGBD-MazFΔ(1-25)) (other)
chain: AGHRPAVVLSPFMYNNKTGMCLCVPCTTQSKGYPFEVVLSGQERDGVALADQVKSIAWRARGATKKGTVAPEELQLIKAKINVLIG
B5: Gal4 DNA binding domain fusion of MazFΔ(72-111) (pGBD-MazFΔ(72-111)) (other)
chain: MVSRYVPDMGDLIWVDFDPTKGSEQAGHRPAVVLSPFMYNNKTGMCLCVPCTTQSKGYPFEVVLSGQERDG

One experiment concerns the target Gal4 DNA binding domain fusion of full-length MazF (pGBD-MazF) (Escherichia coli, UniProt P04386 1-147). Put plainly: yeast two-hybrid, no growth on SD medium lacking Trp, Leu, His and Ade.
Regarding VRKEPVFTLAELVNDITPENLHENIDWGEPKDKEVW (other) [Gal4 transcriptional activation domain fusion of MazEΔ(1-46) (pGAD-MazEΔ(1-46))], the binding result was “no binding”. Same read-out and setting: the entry for B1 is “no binding”.

For another experiment, the target named is T1, Gal4 transcriptional activation domain …. Put plainly: yeast two-hybrid, no growth on medium lacking Trp, Leu, His and Ade.
For the molecule B2, the binding result is “no binding”. Same read-out and setting: with B3 the entry was “no binding”; with B4, “no binding”; with B5, “no binding”.
